The text below walks through data of ChEMBL document CHEMBL1141860, “Synthesis and monoamine transporter affinity of 3-aryl substituted trop-2-enes” (Bioorg Med Chem Lett, 2005).

Sequences of proteins named here, by UniProt entry; tags and fusion partners are left off.
UniProt Q01959, whole entry: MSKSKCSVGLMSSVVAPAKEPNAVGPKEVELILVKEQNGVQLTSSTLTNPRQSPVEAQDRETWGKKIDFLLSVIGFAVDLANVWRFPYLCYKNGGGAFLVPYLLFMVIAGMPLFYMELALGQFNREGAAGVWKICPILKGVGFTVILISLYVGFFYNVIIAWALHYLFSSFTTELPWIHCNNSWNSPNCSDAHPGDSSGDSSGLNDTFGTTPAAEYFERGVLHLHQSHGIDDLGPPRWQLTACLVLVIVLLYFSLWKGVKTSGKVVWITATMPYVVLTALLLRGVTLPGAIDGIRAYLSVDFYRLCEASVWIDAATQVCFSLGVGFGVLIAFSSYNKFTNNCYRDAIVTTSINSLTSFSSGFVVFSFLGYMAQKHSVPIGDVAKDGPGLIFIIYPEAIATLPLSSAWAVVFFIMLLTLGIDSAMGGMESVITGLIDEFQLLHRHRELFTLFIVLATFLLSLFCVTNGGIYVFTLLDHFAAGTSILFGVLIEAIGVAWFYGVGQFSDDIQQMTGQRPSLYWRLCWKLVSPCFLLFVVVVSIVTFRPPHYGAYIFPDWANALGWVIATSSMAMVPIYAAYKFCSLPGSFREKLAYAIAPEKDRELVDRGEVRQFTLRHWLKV

This experiment has as its target Sodium-dependent dopamine transporter (Homo sapiens, UniProt Q01959). Put plainly: Displacement of [3H]WIN-35428 from human DAT. The gist of the method: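 Competitive radioligand binding at human transporters. The tritiated standard ligand matched each transporter: WIN-35,428 for DAT, citalopram for SERT, and nisoxetine for NET. IC50 is the concentration giving 50% inhibition of radioligand binding, reported as mean ± SEM of three independent experiments.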

In the case of `CN1C2C=C(c3ccccc3-c3ccccc3)CC1CC2` (stereo unspecified), the IC50 amounted to 9.24 µM.

What is called IC50 is the concentration at which inhibition is half-maximal. A higher IC50 goes with weaker potency.
